The target of one assay is dopamine D2 receptor (Rattus norvegicus, UniProt P61169). The experiment in a line: Radioligand competition assay, D2 receptor, rat corpus striatum membranes, [3H]nemonapride. The format is binding. For orientation: In a radioligand displacement assay an active substance lowers the binding of a labelled ligand.
The next assay has as its target T1, human D2 receptor (Homo sapiens, UniProt P14416).
T1 construct: expressed in transfected cells
The experiment in a line: Affinity at human D2 receptor in transfected cell membranes, tritium-labeled nemonapride. In kind it is binding.

Protein sequences, listed by entry. Tags and fused reporters are not part of them. Residues count along the entry.
UniProt P61169, 1-415 isoform P61169-2: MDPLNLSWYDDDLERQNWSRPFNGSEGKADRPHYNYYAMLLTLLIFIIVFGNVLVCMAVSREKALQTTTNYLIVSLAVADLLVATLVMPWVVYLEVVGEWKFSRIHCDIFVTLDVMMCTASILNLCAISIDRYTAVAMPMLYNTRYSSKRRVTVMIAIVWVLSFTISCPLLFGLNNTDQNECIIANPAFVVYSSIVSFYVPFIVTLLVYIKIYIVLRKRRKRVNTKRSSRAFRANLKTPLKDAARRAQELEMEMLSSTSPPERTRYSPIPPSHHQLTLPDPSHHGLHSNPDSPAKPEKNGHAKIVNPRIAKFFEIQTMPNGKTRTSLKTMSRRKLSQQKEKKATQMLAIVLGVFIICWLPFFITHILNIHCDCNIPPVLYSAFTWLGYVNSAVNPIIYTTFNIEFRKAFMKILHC
UniProt P14416, whole entry: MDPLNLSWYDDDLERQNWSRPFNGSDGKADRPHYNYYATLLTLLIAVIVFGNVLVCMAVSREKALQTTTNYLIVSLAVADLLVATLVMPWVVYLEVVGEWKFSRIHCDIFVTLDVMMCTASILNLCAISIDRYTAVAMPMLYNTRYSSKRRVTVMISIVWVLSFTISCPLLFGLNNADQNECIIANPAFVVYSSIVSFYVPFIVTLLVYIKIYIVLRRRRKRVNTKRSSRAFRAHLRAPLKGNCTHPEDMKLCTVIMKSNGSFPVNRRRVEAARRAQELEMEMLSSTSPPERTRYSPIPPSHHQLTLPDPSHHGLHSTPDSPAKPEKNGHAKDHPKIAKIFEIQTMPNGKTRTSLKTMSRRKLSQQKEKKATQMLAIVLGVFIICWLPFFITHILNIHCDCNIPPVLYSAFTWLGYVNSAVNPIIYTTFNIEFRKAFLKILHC

Usually Ki stands for the equilibrium dissociation constant of an inhibitor or competing ligand from its target. A higher Ki goes with a looser hold on the target. The compound `CN1CCc2cccc3c2[C@H]1Cc1ccc(O)c(O)c1-3` [Compound 1, R(−)-apomorphine] returned an inhibition constant Ki on dopamine D2 receptor of 13.2 ± 2.1 nM. In turn, `CCCN1CCc2cccc3c2[C@H]1Cc1cccc(O)c1-3` [Compound 4, R(−)—N-propyl-11-hydroxynoraporphine] yielded an inhibition constant Ki at human D2 receptor of 177 ± 17 nM.

These data come from patent publication US8063060B2, “R(−)-11-hydroxyaporphine derivatives and uses thereof” (The McLean Hospital Corporation, priority 2004, dated 2011).
